The text below walks through data of PubChem BioAssay AID602340 (Broad Institute, 2012).

Only a part is listed here, and it is no random draw. Active and inactive are the calls of the source.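 The calls were made as follows: active = mean ATP rescue above about 67%, or every replicate alone reaching that limit (limit read from the data, passing the limit was not always enough); inconclusive = no clear call, values can overlap the other calls; inactive = mean under the limit and some replicate under it.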

The nature of the assay: protection of differentiated C2C12 cells from simvastatin – single point, plate reader, primary screen (AID 602340).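 Also: myotubes were challenged with 10 µM simvastatin during compound exposure.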 The conditions noted are these: C2C12 myotubes + simvastatin, ATP luminescence, 48 h; at 7.49 µM; active compounds read high; scaled: DMSO 0, geranylgeraniol control 100.
Consider `Cc1ccc(C(=O)OC2CN3CCC2CC3)cc1` (centres undefined), for which the rescue of ATP level was inactive: 9.13%.

For the compound `CC1CCC(C(C)C)C(OP(=O)(Nc2ccccn2)c2ccccc2)C1` (centres undefined), the rescue of ATP level is inactive: -5.71%.

Take `Cc1nn(-c2ccccc2)c2c1P(=O)(N1CCOCC1)N(C)C(c1ccccc1)=N2` (centres undefined): the rescue of ATP level was inactive: 8.97%.

On to `CCCC1OP(=O)(Nc2ccccc2)OCC1CC` (centres undefined), for which the rescue of ATP level was inactive: -7.03%.

On to `O=C(/C=C/c1ccccc1)OC1CN2CCC1CC2` (centres undefined), for which the rescue of ATP level is inactive: 2.49%.

Turning to `Cc1ccc(S(=O)(=O)N(CCCN)CCCc2c(C)nc(N)[nH]c2=O)cc1`, the rescue of ATP level was inactive: 0.116%.

For the compound `O=P1(Nc2ncccn2)COc2ccccc2OC1`, the rescue of ATP level is inactive: 0.103%.

Consider `O=[As](O)(c1cccs1)c1cccs1`, for which the rescue of ATP level is inactive: 1.83%.

As to `NS(=O)(=O)c1cccc(NC(=O)COC(=O)C(O)(c2ccccc2)c2ccccc2)c1`, the rescue of ATP level is inactive: 2.86%.

Turning to `O=P1(Nc2ccc(Br)cn2)COc2ccccc2OC1`, the rescue of ATP level is inactive: -4.73%.

As to `CCOP(=O)(NC(=NC(C)c1ccccc1)NC(C)c1ccccc1)OCC` (centres undefined), the rescue of ATP level was inactive: 3.53%.

Consider `CCC1=CC2Cc3nc4ccc(Cl)cc4c(N)c3C(C1)C2` (centres undefined), for which the rescue of ATP level was inactive: -65.1%.

`O=P1(Nc2ccccn2)COc2ccccc2OC1`: the rescue of ATP level is inactive: 3.08%.

`CN(CCCl)Cc1cc(Cl)c(NC2=NCCN2)c(Cl)c1`: the rescue of ATP level is inactive: -0.382%.

Take `Clc1n[nH]nc1-c1nn[nH][15n]1`: the rescue of ATP level was inactive: 12.4%.

On to `O=P1(N(CCCl)CCCl)NCCC(C(F)(F)F)O1` (centres undefined), for which the rescue of ATP level was inactive: -0.899%.

For the compound `CN(C(=O)Cc1ccc(Cl)c(Cl)c1)[C@@H]1CCCC[C@H]1N1CCCC1`, the rescue of ATP level is inactive: -1.74%.

In the case of `CC(C)/C=N\N=C(\N)N[N+](=O)[O-]`, the rescue of ATP level is inactive: -0.908%.

Turning to `CS(=O)(=O)c1ccc(Cl)c(NC(=O)COC(=O)C(O)(c2ccccc2)c2ccccc2)c1`, the rescue of ATP level is inactive: 6.45%.

On to `Cc1cccc(OCC(=O)OC2CN3CCC2CC3)c1` (centres undefined), for which the rescue of ATP level was inactive: 1.76%.

For the compound `O=[As](O)(c1cccc(O)c1)c1cccc(O)c1`, the rescue of ATP level was inactive: 5.38%.

As for `Nc1cccc2c([As](=O)(O)O)cccc12`, the rescue of ATP level was inactive: 63.2%.

Regarding `Cc1ccc(NCCc2c([N+](=O)[O-])cc([N+](=O)[O-])cc2[N+](=O)[O-])cc1`, the rescue of ATP level is inactive: -4.01%.

Take `CCCOP(=S)(Nc1nc(N)cc(=O)[nH]1)OCCC`: the rescue of ATP level is inactive: -14.8%.

For `O=P(Nc1nccs1)(c1ccccc1)c1nc2ccccc2s1` (centres undefined), the rescue of ATP level is inactive: -21.2%.

As for `CCOP1(=S)c2c(C)nn(CCC#N)c2N=C(c2ccccc2F)N1C` (centres undefined), the rescue of ATP level is inactive: -17.9%.

For `CS(=O)(=O)c1cc([N+](=O)[O-])c2no[n+]([O-])c2c1`, the rescue of ATP level is inactive: -4%.

In the case of `O=C(O)COc1ccc([As](=O)(O)O)cc1[N+](=O)[O-]`, the rescue of ATP level was inactive: 4.46%.

As for `Nc1ccccc1[As](=O)(O)c1ccccc1`, the rescue of ATP level is inactive: 0.571%.

As for `NC(=O)Nc1ccc([As](=O)(O)O)cc1`, the rescue of ATP level was inactive: 6.14%.

`CN(C(=O)Cc1ccccc1)[C@@H]1CC[C@]2(CCCO2)C[C@H]1N1CCCC1`: the rescue of ATP level was inactive: 10.9%.

For `CCOP1(=S)c2c(C)nn(CCC#N)c2N=C(c2ccc(F)cc2)N1C` (centres undefined), the rescue of ATP level was inactive: -6.73%.

Take `N#CCCN(C(=O)COC(=O)C(O)(c1ccccc1)c1ccccc1)c1ccc(F)cc1`: the rescue of ATP level is inactive: 11.7%.

Regarding `CN(C(=O)Cc1ccc(Cl)c(Cl)c1)[C@H]1CC[C@@]2(CCCO2)C[C@@H]1N1CCCC1`, the rescue of ATP level was inactive: -1.71%.

Consider `O=[N+]([O-])c1ccc2c(c1)nnn2O`, for which the rescue of ATP level is inactive: -3.87%.

With `O=[N+]([O-])c1ccc(-c2cc([N+](=O)[O-])c(O)c([N+](=O)[O-])c2)cc1`, the rescue of ATP level is inactive: -0.983%.

With `COc1cc(C(=O)NCC2(N3CCOCC3)CCCCC2)ccc1OCC(C)C`, the rescue of ATP level was inactive: -10.8%.

As to `C[As](=O)(O)c1cccc(C(=O)O)c1`, the rescue of ATP level was inactive: 7.87%.

Regarding `Cc1ccc(OP(=O)(Nc2ccc([N+](=O)[O-])cn2)Oc2ccc(C)cc2)cc1`, the rescue of ATP level is inactive: 3.33%.

As for `ClCCSc1nnc(-c2cccnc2)o1`, the rescue of ATP level was inactive: 7.56%.

As for `CC(C)c1ccc(OP(=O)(Nc2ccccn2)Oc2ccccc2F)cc1` (centres undefined), the rescue of ATP level was inactive: 4.63%.

With `O=C(OC1CN2CCC1CC2)c1cccc2[nH]cnc12` (centres undefined), the rescue of ATP level was inactive: -3.61%.

With `CCN(CC)C(=S)SC(NC=O)C(Cl)(Cl)Cl` (centres undefined), the rescue of ATP level was inactive: -7.06%.

In the case of `Cc1cc(=O)[nH]c(N[N+](=O)[O-])n1`, the rescue of ATP level was inactive: -0.768%.

Turning to `O=C(OC1CN2CCC1CC2)C12CC3CC(CC(C3)C1)C2` (centres undefined), the rescue of ATP level is inactive: -13.3%.

Turning to `O=P1(N(CCCl)CCCl)Nc2ccccc2N1`, the rescue of ATP level was inactive: -1.21%.

For `COc1cc(I)ccc1[As](=O)(O)O`, the rescue of ATP level was inactive: -5.48%.

In the case of `O=[N+]([O-])c1cc(Oc2ccc([N+](=O)[O-])cc2C(F)(F)F)cc([N+](=O)[O-])c1`, the rescue of ATP level was inactive: -4.49%.

On to `COc1ccc(N/C(=N/P(=O)(N2CCOCC2)N2CCOCC2)N2CCOCC2)cc1`, for which the rescue of ATP level was inactive: 18.1%.

For the compound `COP1(=S)c2c(C)nn(CCC#N)c2N=C(c2ccc(F)cc2)N1C` (centres undefined), the rescue of ATP level was inactive: -12.1%.

`O=C(O)C(=O)c1ccc(N(CCCl)CCCl)cc1`: the rescue of ATP level was inactive: 11.7%.

With `O=C(Nc1ccncc1[N+](=O)[O-])c1ccc([N+](=O)[O-])cc1[N+](=O)[O-]`, the rescue of ATP level was inactive: 16.6%.

As for `O=C(COc1ccccc1)OC1CN2CCC1CC2` (centres undefined), the rescue of ATP level is inactive: -1.43%.

With `CSc1ccc(Nc2c([N+](=O)[O-])cc([N+](=O)[O-])cc2[N+](=O)[O-])cc1`, the rescue of ATP level was inactive: 0.872%.

`O=C(OC1CN2CCC1CC2)c1cccc([N+](=O)[O-])c1` (centres undefined): the rescue of ATP level is inactive: -3.91%.

With `O=C(O)C(O)c1ccc(N(CCCl)CCCl)cc1` (centres undefined), the rescue of ATP level is inactive: 9.58%.

Turning to `CCOC(=O)Nc1ccc([As](=O)(O)O)c(O)c1`, the rescue of ATP level is inactive: -12.9%.

Turning to `CC1CCNP(=O)(N(CCCl)CCCl)O1` (centres undefined), the rescue of ATP level was inactive: 6.43%.

As to `COP(=O)(OC)N1CC1c1ccccc1` (centres undefined), the rescue of ATP level is inactive: -0.019%.
